For the experiment, the system named is Z-138 non-Hodgkin's lymphoma cells. As to the kind of experiment: In vitro anti-proliferation assay of Z-138 cells (CellTiter-Glo, 6 days). Conditions: read-out: IC50 (nM), in vitro anti-proliferative activity on Z-138 tumor cells.
`O=C(NC[C@H](O)CN1CCc2ccccc2C1)c1ccc2c(c1)NC(=O)C1(COC1)O2`: the IC50 was 27 nM.
As for `O=C(NC[C@H](O)CN1CCc2ccccc2C1)c1ccc2c(c1)NC(=O)C1(CCC1)O2`, the IC50 stood at 54 nM.
In the case of `COc1cc2c(cc1C(=O)NC[C@H](O)CN1CCc3ccccc3C1)NC(=O)[C@]1(CCOC1)O2`, the IC50 turned out to be 29.3 nM.
As to `COc1cc2c(cc1C(=O)NC[C@H](O)CN1CCc3ccccc3C1)NC(=O)[C@@]1(CCOC1)O2`, the 50% inhibitory concentration (IC50) was 11.5 nM.

The record behind these values is patent publication US20230365558A1, “TETRAHYDROISOQUINOLINE DERIVATIVE AND USE THEREOF” (MEDSHINE DISCOVERY INC., priority 2020, published 2023).
